AlphaSeq binding of Ab-14 light chain variants to a spike HR2 peptide

Target peptide (SARS-CoV-2 spike, HR2 region): PDVDLGDISGINAS

Ab-14 is the parent antibody, in scFv form: VH, then the linker GGGGSGGGGSGGGGS, then VL. The heavy chain is unchanged in all variants.
VH: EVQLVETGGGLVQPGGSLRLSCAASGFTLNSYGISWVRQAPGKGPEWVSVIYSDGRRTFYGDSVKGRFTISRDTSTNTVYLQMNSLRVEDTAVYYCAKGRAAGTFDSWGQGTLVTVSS
VL: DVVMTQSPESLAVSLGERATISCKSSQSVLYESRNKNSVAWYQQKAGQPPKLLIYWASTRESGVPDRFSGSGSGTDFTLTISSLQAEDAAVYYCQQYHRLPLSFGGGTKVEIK

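The starting antibody came from a phage panning campaign against this peptide. In library AAYL50, one, two or three CDR residues were substituted; doubles and triples were drawn at random. The assay is AlphaSeq: two haploid yeast populations carry antibody and antigen on their surface. Binding brings cells together so that they mate, and sequencing counts the barcode pairs among the diploids. A regression on co-assayed BCL2-family reference pairs converts the normalised counts of each replicate to an apparent Kd. There are three technical replicates.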

The parent's light chain CDRs are KSSQSVLYESRNKNSVA, WASTRES, QQYHRLPLS; each variant's own CDRs replace them letter for letter. Numbers give log10(Kd / nM), so 0 is 1 nM and 3 is 1 µM. Smaller is tighter. A mean of the replicates is given; it leaves out those without a signal. "no signal" means that the variant was in the library but no mating with the target was seen in any replicate; the authors take this as a sign of poor binding, and no number exists.

| # | CDR-L1 | CDR-L2 | CDR-L3 | mean log10 Kd (nM) | seen in |
|---|---|---|---|---|---|
| 1 | RSSQSVLYESRNKNSVA | WASTRES | QQCVRLPLS | 4.60 | 1/3 |
| 2 | KSSQSCLYESRNKNSVR | WASTRES | QQTHRLPLS | no signal | 0/3 |
| 3 | KSSQSVLYESRNKNSVA | WADTREC | GQYHRLPLS | 3.12 | 2/3 |
| 4 | KSSQSVLYESRNYNSVR | WASTRES | QIYHRLPLS | no signal | 0/3 |
| 5 | KSSQFQNYESRNKNSVA | WASTRES | QQYHRLPLS | 0.37 | 3/3 |
| 6 | KSSQSVLYESRNSNSVA | WASTRES | RQYHRLPFS | no signal | 0/3 |
| 7 | KSSQSVLYEVRNKNSVA | WASTRES | QQYRRPPLS | no signal | 0/3 |
| 8 | KSSQSVLYSYLNKNSVA | WASTRES | QQYHRLPLS | 0.66 | 3/3 |
| 9 | KSSQSVLYESRNNNSVA | WAKTREM | QQYHRLPLS | 1.23 | 3/3 |
| 10 | KSSQSVLYESRNKNSVA | LACTRES | QQYWRLPLS | 3.98 | 3/3 |
| 11 | KSSHSVLYESRNKNSVG | WASTRES | QQVHRLPLS | 3.79 | 1/3 |
| 12 | KSSQSVLYESRNKNSVA | WASPRES | QQYHRLPMS | no signal | 0/3 |
| 13 | KSSQSVLYESRNKNSPC | WASTRES | QQRHRLPLS | no signal | 0/3 |
| 14 | GSSQSALYESRNKNSVA | WASTRES | QQYHRLPLS | 1.81 | 3/3 |
| 15 | ESSQSVSYESRNKNSVA | WASTRES | QQYLRLPLS | 2.85 | 3/3 |
| 16 | KSSQSVLYESRTSNSVA | WASTRES | QQYHRLPLS | 1.55 | 3/3 |
| 17 | KSSQSVLYESANKNSVA | WASTRES | QQYIRLPIS | 1.48 | 3/3 |
| 18 | KSSQSVLIESRNKNSVA | WASTRES | QQYHRNPLK | 0.49 | 3/3 |
| 19 | KSSQGVLYESRNKNSTN | WASTRES | QQYHRLPLS | no signal | 0/3 |
| 20 | KSSQSVLYESRNKNSVL | WASTRES | QQYHRIPLS | no signal | 0/3 |
| 21 | MSSQVVLYESRNKNSVA | WASTRES | QQYTRLPLS | 2.76 | 1/3 |
| 22 | KSSQWVLYESRNKNSVA | WAKTRES | QQYHRLPLS | 3.12 | 3/3 |
| 23 | KSSQSELYESRNDNSVA | WASTIES | QQYHRLPLS | 5.25 | 2/3 |
| 24 | KSSISVIYESRNKNSVC | WASTRES | QQYHRLPLS | 3.98 | 2/3 |
| 25 | KSSHSVLYESRNKNSVA | WASTRES | HQYHRLPLS | no signal | 0/3 |
| 26 | KSSQSVLYESNNKNSVA | RASTRES | QQYNRLPLS | 0.84 | 3/3 |
| 27 | KSSQSVLGESRNNNSVA | WASTRES | QQYHRLPLS | 1.89 | 3/3 |
| 28 | KSSQSVLYESRNKNSVA | WASTRES | QPYHRGPLS | 2.46 | 3/3 |
| 29 | KSSQSVLYESRNKNSVA | WAWTRES | QEYHRLPTS | no signal | 0/3 |
| 30 | KSSQSVLYESRNKNSVK | WASTHES | QQYHRLPES | 4.20 | 2/3 |
| 31 | KSSQSVLEESRNKNSVI | WASTRWS | QQYHRLPLS | no signal | 0/3 |
| 32 | KSYQSGLYESRNKNSVA | WASTRHS | QQYHRLPLS | 1.73 | 3/3 |
| 33 | KSSQSVLYESRNKYSVA | WASTRES | QFYHRLPSS | 3.69 | 1/3 |
| 34 | KSSQSVLYESRNKNSAA | WASTRES | QDYHRLPLS | 3.15 | 1/3 |
| 35 | KSSQSVLYETRKKNSSA | WASTRES | QQYHRLPLS | 3.56 | 1/3 |
| 36 | CSSQSVLYESRNKNSVA | WASTRES | SQYHRLPLS | 3.13 | 1/3 |
| 37 | KSSQEVLYESRNKNSVA | WASTRES | QQYRCLPLS | no signal | 0/3 |
| 38 | KSSQSVLYEQRNKFSVA | WASTRES | QQYHRLPQS | no signal | 0/3 |
| 39 | KSSQSVEYESRHKNSVA | WASTFES | QQYHRLPLS | no signal | 0/3 |
| 40 | FSSQSVEYESRNKNSVA | SASTRES | QQYHRLPLS | no signal | 0/3 |
| 41 | KSSQSNLYESRNKNSIA | WVSTRES | QQYHRLPLS | 0.64 | 3/3 |
| 42 | KSSQYVLYESRNKNSVA | WASTRES | QQYHPLPLV | no signal | 0/3 |
| 43 | KSQQSVLYEPRNKNSVA | WISTRES | QQYHRLPLS | 1.79 | 2/3 |
| 44 | TSSQSVLYESRNKNSVA | WASTRES | QQYSRLPLV | 2.41 | 3/3 |
| 45 | KSSQSVLYEERNKNSVA | WASTRES | HQHHRLPLS | 2.07 | 3/3 |
| 46 | KSSQSKLYESRNKNSVA | WASFRES | QQYMRLPLS | 0.96 | 3/3 |
| 47 | KFSQSVLSESRNKNSVA | WASTRES | QQTHRLPLS | 5.71 | 1/3 |
| 48 | KSSQSVMYESRNKNSVA | WHSTYES | QQYHRLPLS | 3.82 | 1/3 |
| 49 | KWSQSVLYESREKNSVA | WAMTRES | QQYHRLPLS | 2.64 | 3/3 |
| 50 | KSSQSVLYESRNKNSCA | WASTRSS | QQYHRLPES | no signal | 0/3 |
| 51 | KSSQQVLYESRNKNYVA | WASTRES | QQYHRLPLS | 2.91 | 3/3 |
| 52 | HSSQSVTYESRNKNSVA | WASTRES | MQYHRLPLS | 1.74 | 3/3 |
| 53 | KSSQSVLYESRNKYSVA | WASTRES | MQYHRLPLS | 0.65 | 3/3 |
| 54 | KSSQQVLYESRNKNSGA | WASTRES | YQYHRLPLS | no signal | 0/3 |
| 55 | KSSTSVLYESRNKNSVA | WASQRKS | QQYHRLPLS | 2.75 | 3/3 |
| 56 | KSSQSVLYESRNSNSVA | WASTAES | QQYHRLPLK | no signal | 0/3 |
| 57 | KSSQSVLYESRVKFSVA | WASTNES | QQYHRLPLS | no signal | 0/3 |
| 58 | KSSQSVLYFSRNKNSVA | WASTNES | QQYHRLPLN | no signal | 0/3 |
| 59 | KSSQSVLEDSRNKNSVA | WASTRES | QQYHRLFLS | 3.27 | 1/3 |
| 60 | KSSQSILYESRNKNMVA | WASTRCS | QQYHRLPLS | 2.24 | 2/3 |
| 61 | KSSQSVLYESRNKNSNA | WVSTRES | QQYHRLPLY | 4.52 | 1/3 |
| 62 | KSSQSVLYESRYKASVA | WADTRES | QQYHRLPLS | 2.16 | 3/3 |
| 63 | SSSQSHLYSSRNKNSVA | WASTRES | QQYHRLPLS | 1.70 | 3/3 |
| 64 | RSSQTVLYESRNKNSVA | WALTRES | QQYHRLPLS | no signal | 0/3 |
| 65 | KSSLSVLYESRNKNCVA | WASTRES | QQGHRLPLS | no signal | 0/3 |
| 66 | KSSQSVLYESREKNSVA | WASTRES | QQYHRLPYS | no signal | 0/3 |
| 67 | KSSQSVLYESRNKASVA | WASTRES | QQWHRLPLS | 3.45 | 1/3 |
| 68 | DSSQSVVYESNNKNSVA | WASTRES | QQYHRLPLS | 1.26 | 3/3 |
| 69 | GSSQSVLYESRNKNMVA | WASTREE | QQYHRLPLS | 2.72 | 2/3 |

4 of these entries, quoted again:

{"CDR-L1": "KSSQSCLYESRNKNSVR", "CDR-L2": "WASTRES", "CDR-L3": "QQTHRLPLS", "mean log10 Kd (nM)": "no signal", "seen in": "0/3"}
{"CDR-L1": "KSSLSVLYESRNKNCVA", "CDR-L2": "WASTRES", "CDR-L3": "QQGHRLPLS", "mean log10 Kd (nM)": "no signal", "seen in": "0/3"}
{"CDR-L1": "KSSQWVLYESRNKNSVA", "CDR-L2": "WAKTRES", "CDR-L3": "QQYHRLPLS", "mean log10 Kd (nM)": "3.12", "seen in": "3/3"}
{"CDR-L1": "RSSQSVLYESRNKNSVA", "CDR-L2": "WASTRES", "CDR-L3": "QQCVRLPLS", "mean log10 Kd (nM)": "4.60", "seen in": "1/3"}

For reference, the parent read 0.65 as the reference entry and 1.68 as a member of this library. Nonspecific signal, from three strains lacking the peptide, appeared in 18% of pairings of library AAYL50, centred on 4.19 (5% of these signals below 2.99); values are not corrected for it.

The measurements come from Engelhart et al. 2022 (doi:10.1038/s41597-022-01779-4) through the FLAb antibody collection.